# Where two headings read alike, the source gives them in different places.
# Experiments:
# [1] = test system: zebrafish exposed to 100 μM KCN; assay: Zebrafish survival assay, rescue from 100 μM KCN (EC100); conditions: challenge with 100 μM KCN; complex dissolved in DMSO; doses 1-1000 μM
# [2] = test system: zebrafish exposed to 100 μM KCN; conditions: for cyanide antidote activity / EC100, dose that rescued 100% of zebrafish: challenge with 100 μM KCN, complex dissolved in DMSO; for cyanide antidote activity: doses 1-1000 μM
# [3] = UV-VIS spectral assay of cyanide binding; conditions: 1 mM complex, 5 mM cyanide; 7 in PBS, 37 in water, 36 dissolved in DMSO and assayed in water
# [4] = test system: pigs exposed to a lethal dose of cyanide; assay: Swine cyanide model; conditions: 20 mg/kg IM, n=3
# [5] = Reported acute toxicity in mice (LD50); conditions: LD50 ratio
# [6] = test system: rabbits exposed to a lethal dose of cyanide; assay: Rabbit lethal cyanide model, intramuscular antidote; conditions: HCP at t=40, DOS
compound,measurement,setting,value
carboplatin,cyanide antidote activity,[1],not a cyanide antidote
cis-diamminechloro(dimethylsulfoxide)platinum(II),cyanide antidote activity,[2]; listed as 36,is a cyanide antidote
same,reaction rate with cyanide,[3],0.367 AU/min
[Cl][Pt]([Cl])([Cl])([Cl])([Cl])[Cl],"survival to the endpoint of the study, 110 minutes after commencing cyanide infusion",[4],all survived
same,acute toxicity dose in mice relative to cisplatin,[5],20 fold
same,cytochrome c oxidase redox state in muscle,[6],plateaus after antidote injection
cis-diamminedichloroplatinum(II),"EC100, dose that rescued 100% of zebrafish",[2],125 µM
same,cyanide antidote activity,[2],equipotent antidotes
same,reaction rate with cyanide,[3],0.021 AU/min
satraplatin,cyanide antidote activity,[2],not a cyanide antidote
transplatin,cyanide antidote activity,[2],equipotent antidotes
Zeise's salt,dose required in PBS relative to DMSO,"[2]; 100 μM KCN, PBS versus DMSO solvation",8 fold
hydroxocobalamin,"EC100, dose that rescued 100% of zebrafish",[2],100 µM

# From patent publication US11484521B2, “Antidotes to cyanide poisoning” (dated 2022)
